# Patent publication US7576115B2, “Heterocyclic compounds and thrombopoietin receptor activators” (Nissan Chemical Industries, Ltd., priority 2003, dated 2009)
# Amino acid sequences for entries named in this document (tags omitted). Residues count along the entry.
# UniProt P40238, 26-635 limits assumed: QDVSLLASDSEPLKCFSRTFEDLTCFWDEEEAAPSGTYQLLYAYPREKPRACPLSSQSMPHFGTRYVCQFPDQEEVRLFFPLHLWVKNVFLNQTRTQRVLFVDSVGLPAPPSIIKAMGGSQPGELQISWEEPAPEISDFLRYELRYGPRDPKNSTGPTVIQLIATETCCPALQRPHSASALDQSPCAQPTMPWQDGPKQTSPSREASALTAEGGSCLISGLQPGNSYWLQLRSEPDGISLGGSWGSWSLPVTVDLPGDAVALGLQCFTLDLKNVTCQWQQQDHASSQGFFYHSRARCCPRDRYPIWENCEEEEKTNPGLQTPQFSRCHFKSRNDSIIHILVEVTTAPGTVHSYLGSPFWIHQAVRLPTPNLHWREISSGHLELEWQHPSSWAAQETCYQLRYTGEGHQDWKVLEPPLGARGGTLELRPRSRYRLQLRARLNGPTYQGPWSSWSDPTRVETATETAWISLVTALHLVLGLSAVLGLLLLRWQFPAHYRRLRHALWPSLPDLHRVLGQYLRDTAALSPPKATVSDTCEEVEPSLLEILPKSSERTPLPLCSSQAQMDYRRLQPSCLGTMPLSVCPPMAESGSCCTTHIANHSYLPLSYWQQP
# Biological target: thrombopoietin (TPO) receptor (Homo sapiens, UniProt P40238)
# Assay: Stimulation of proliferation of TPO-dependent cell line UT7/EPO-mpl (WST-8)
# Conditions: concentration that yields a growth rate corresponding to 50% of the growth of UT-7/EPO-mpl observed in the presence of 10 ng/ml TPO
# Description: The reactivity of the compound of Synthetic Example 3 of the present invention with thrombopoietin (TPO) receptor was assayed using a human leukemic cell line, UT7/EPO-mpl.
# UT7/EPO-mpl is a stable transformed cell line obtained by introducing into human leukemic cell line UT7/EPO a vector that induces expression of human TPO receptor (c-mp1) under control of a cytomegaloviral promoter by the method of Takatoku et al. (J. Biol. Chem., 272:7259-7263 (1997)). […] These two cell lines were subcultured in Iscove's modified Dulbecco's medium (IMDM; GIBCO) containing 10% fetal bovine serum (FBS; TRACE SCIENTIFIC, Thermo Electron or BioWest) using a CO2 incubator (5% CO2, 37° C.)
# The subcultured cells described above were washed twice with phosphate buffered saline (PBS) and suspended in IMDM containing 10% FBS at a cell density of 6×10^4 cells/ml. The cell suspension was transferred to a 96-well tissue culture plate (CORNING) in 100 μl aliquots. Then either TPO (PeproTech EC) or the compound of Synthetic Example 3 dissolved in dimethyl sulfoxide (DMSO) was diluted 83-fold with IMDM containing 10% FBS and added to the aforementioned cell suspension in 20 μl aliquots. The suspension was incubated in a CO2 incubator (5% Co2, 37° C.) for 4 days. Cell proliferation was assayed using WST-8 reagent (Kishida Chemical Co., Ltd.) according to instructions by the manufacturer. A 10 μl aliquot of 5 mM WST-8 reagent solution was added to each well of the tissue culture plate, and the plate was incubated at 37° C. for 4 h. The formazan pigment generated was detected by measuring the absorbance at 450 nm with a 96-well microplate reader (Nihon Molecular Devices, Spectramax 190).
# The compounds of the following Synthetic Examples were tested according to the method of Assay Example 1 to determine the concentration of each compound that yields a growth rate corresponding to 50% of the growth of human leukemic cell line UT-7/EPO-mpl observed in the presence of 10 ng/ml TPO (EC50).
row,SMILES,EC50 [ng/mL]
1,CCn1nc(C(C)=NNC(=S)Nc2ccc(C(=O)O)cc2)c(O)c1-c1ccc(C(C)(C)C)cc1,3.8
2,"CC(=NNC(=O)c1ccc(C(=O)O)cc1)c1nn(C)c(-c2ccc(C(C)(C)C)cc2)c1O [Synthetic Example 3, 4-[(2-{1-[5-(4-tert-butylphenyl)-4-hydroxy-1-methyl-1H-pyrazol-3-yl]ethylidene}hydrazino)carbonyl]benzoic acid]",2.7
3,CC(=NNC(=O)c1ccc(C(=O)O)c([N+](=O)[O-])c1)c1nn(C)c(-c2ccc(Cl)cc2)c1O,3.3
4,CC(=NNC(=O)c1ccc(C(=O)O)cc1)c1nn(Cc2ccccc2)c(-c2ccc(C(C)(C)C)cc2)c1O,4.3
5,COC(=O)c1cccc(C(=O)NN=C(C)c2nn(C)c(-c3ccc(C(C)(C)C)cc3)c2O)c1,10.5
6,CCCCCc1ccc(-c2c(O)c(C(C)=NNC(=O)c3ccc(C(=O)O)cc3)nn2C)cc1,7.8
7,CCCCCc1ccc(-c2c(O)c(C(C)=NNC(=S)Nc3ccc(C(=O)O)cc3)nn2C)cc1,21.3
8,CC(=NNC(=S)Nc1ccc(C(=O)O)cc1)c1nn(Cc2ccccc2)c(-c2ccc(C(C)(C)C)cc2)c1O,3.7
9,CC(=NNC(=S)Nc1ccc(C(=O)O)cc1)c1nn(C)c(-c2ccc(C(F)(F)F)cc2)c1O,2.9
10,CC(=NNC(=S)Nc1ccc(C(=O)O)cc1)c1nn(C)c(-c2ccc(C(C)(C)C)cc2)c1O,3.5
11,CC(C)C(=NNC(=O)c1ccc(C(=O)O)cc1)c1csc(-c2ccc(C(C)(C)C)cc2)c1O,5.8
12,CC(=NNC(=O)c1ccc(C(=O)N2CCN(C)CC2)c([N+](=O)[O-])c1)c1csc(-c2ccc(C(C)(C)C)cc2)c1O,4.2
13,CC(=NNC(=O)c1cccc(C(=O)O)c1)c1nn(C)c(-c2ccc(C(C)(C)C)cc2)c1O,45.0
14,C/C(=N\NC(=O)c1ccc(-c2nnn[nH]2)s1)c1csc(-c2ccc(OC(F)(F)F)cc2)c1O,2.9
15,CC(=NNC(=S)Nc1ccc(Cl)cc1OCCCC(=O)O)c1nn(C)c(-c2ccc(C(F)(F)F)cc2)c1O,3.9

# The next lines start with the values.
row,EC50 [ng/mL],SMILES
1,3.5,CC(=NNC(=S)Nc1cccc(C(=O)O)c1)c1csc(-c2ccc(Cl)c(Cl)c2)c1O
2,4.7,CC(=NNC(=S)Nc1ccc(C(=O)O)c(Cl)c1)c1nn(C)c(-c2ccc(C(F)(F)F)cc2)c1O
3,2.2,C/C(=N\NC(=O)c1ccc(-c2nnn[nH]2)cc1)c1csc(-c2ccc(Cl)c(Cl)c2)c1O
4,3.2,CC(=NNC(=O)c1ccc(C(=O)O)s1)c1nn(C)c(-c2ccc(Cl)c(Cl)c2)c1O
5,13,CC(=NNC(=O)c1oncc1C)c1csc(-c2ccc(Cl)c(Cl)c2)c1O
6,14,CC(C)(C)c1ccc(-c2scc(C=NNC(=S)Nc3ccc(C(=O)O)cc3)c2O)cc1
7,5.9,CC(=NNC(=S)Nc1ccc(C(=O)O)cc1)c1nn(C)c(-c2ccc(C)c(C)c2)c1O
8,3.5,CC(=NNC(=O)c1ccc(C(=O)O)cc1)c1nn(C)c(-c2ccc(Cl)c(Cl)c2)c1O
9,4.5,"CC(=NNC(=S)Nc1ccc(C(=O)O)cc1)c1nn(C)c(-c2ccc(Cl)c(Cl)c2)c1O [Synthetic Example 2, 4-{[(2-{1-[5-(3,4-dichlorophenyl)-4-hydroxy-1-methyl-1H-pyrazol-3-yl]ethylidene}hydrazino)carbonothioyl]amino}benzoic acid]"
10,4.7,CC(=NNC(=S)Nc1ccc(C(=O)O)c([N+](=O)[O-])c1)c1csc(-c2ccc(C(F)(F)F)cc2)c1O
11,3.4,C/C(=N\NC(=S)Nc1ccc(S(N)(=O)=O)cc1)c1csc(-c2ccc(Cl)cc2)c1O
12,6.0,CC(=NNC(=O)c1ccc2[nH]c(=S)[nH]c2c1)c1csc(-c2ccc(Cl)c(Cl)c2)c1O

# Same assay, conditions: concentration that yields a growth rate corresponding to 50% of the growth of UT-7/EPO-mpl observed in the presence of 10 ng/ml TPO; tested form: K salt
row,EC50 [ng/mL],SMILES
1,2.9,CC(=NNC(=S)Nc1ccc(S(=O)(=O)O)cc1)c1csc(-c2ccc(Cl)c(Cl)c2)c1O
